Reference: patent US9215868B2, “Low-foam preparations for crop protection” (Bayer Intellectual Property GmbH, priority 2006, dated 2015)

Conditions: additive alone dissolved at 2 g/l

## C12/C14-fatty alcohol diethylene glycol ether sulfate
  foam volume after 12 min: 100 mL
